Assay [1] relates to Mycobacterium tuberculosis. Nature of the assay: Substrate activity at Mycobacterium tuberculosis Ddn expressed in Escherichia coli BL21 (DE3) assessed as oxidation of F420H2 by measuring Kcat/Km by spectrophotometric analysis.
The subject of assay [2] is Mycobacterium tuberculosis. Nature of the assay: Substrate activity at Mycobacterium tuberculosis Ddn expressed in Escherichia coli BL21 (DE3) assessed as oxidation of F420H2 by measuring Kcat by spectrophotometric analysis.
Assay [3] relates to Mycobacterium tuberculosis. As to the kind of experiment: Substrate activity at Mycobacterium tuberculosis Ddn expressed in Escherichia coli BL21 (DE3) assessed as oxidation of F420H2 by measuring Km by spectrophotometric analysis.

SMILES strings stand for the structures.

By kcat/Km is commonly meant the second-order rate constant that governs catalysis at low substrate concentration. As usually defined, the kcat is the maximal rate divided by the concentration of active sites. By Km is commonly meant the concentration of substrate that gives half-maximal velocity. With `O=c1c2nc([N+](=O)[O-])cn2ccn1Cc1ccc(OC(F)(F)F)cc1`, the kcat/Km in assay [1] turned out to be 1640 M⁻¹ s⁻¹. For the same compound, in assay [2], the kcat was 3.3 10^-3/s. The Km in assay [3] is 2 µM.

(Values after ChEMBL document CHEMBL5104178, “Nitroimidazopyrazinones with Oral Activity against Tuberculosis and Chagas Disease in Mouse Models of Infection” (J Med Chem, 2022).)
